Earlier results as cited in PMC4188605, “Biochemical and Pharmacological Characterization of the Human Lymphocyte Antigen B-Associated Transcript 5 (BAT5/ABHD16A)” (PLoS ONE, 2014).

Molecular target: T1, hABHD6 (Homo sapiens, UniProt Q9BV23)
T1 construct: expressed in transfected cells; host or cells: HEK293
T1 sequence (Q9BV23 1-337): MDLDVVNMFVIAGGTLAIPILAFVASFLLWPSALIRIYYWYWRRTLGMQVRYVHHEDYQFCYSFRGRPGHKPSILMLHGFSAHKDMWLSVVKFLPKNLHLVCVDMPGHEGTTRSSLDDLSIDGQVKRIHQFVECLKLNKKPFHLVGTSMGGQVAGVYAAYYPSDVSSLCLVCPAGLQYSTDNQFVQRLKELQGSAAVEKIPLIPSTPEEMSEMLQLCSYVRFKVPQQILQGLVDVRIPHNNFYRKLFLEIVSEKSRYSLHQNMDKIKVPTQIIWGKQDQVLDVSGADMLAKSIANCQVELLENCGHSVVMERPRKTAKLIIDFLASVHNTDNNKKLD
Design: method as in PMID 22969151
Details: hABHD6-HEK lysates; cited from earlier work

For `CCCCCCCCCCC[C@@H](C[C@@H]1OC(=O)[C@H]1CCCCCC)OC(=O)[C@H](CC(C)C)NC=O` [THL, tetrahydrolipstatin], the IC50 is given as about 50 nM.
